The assay has as its target T1, human MMP-2 (amino acids 1-660) (Homo sapiens, UniProt P08253).
T1 construct: human MMP-2 (amino acids 1-660); made in house
T1 sequence (P08253 110-660): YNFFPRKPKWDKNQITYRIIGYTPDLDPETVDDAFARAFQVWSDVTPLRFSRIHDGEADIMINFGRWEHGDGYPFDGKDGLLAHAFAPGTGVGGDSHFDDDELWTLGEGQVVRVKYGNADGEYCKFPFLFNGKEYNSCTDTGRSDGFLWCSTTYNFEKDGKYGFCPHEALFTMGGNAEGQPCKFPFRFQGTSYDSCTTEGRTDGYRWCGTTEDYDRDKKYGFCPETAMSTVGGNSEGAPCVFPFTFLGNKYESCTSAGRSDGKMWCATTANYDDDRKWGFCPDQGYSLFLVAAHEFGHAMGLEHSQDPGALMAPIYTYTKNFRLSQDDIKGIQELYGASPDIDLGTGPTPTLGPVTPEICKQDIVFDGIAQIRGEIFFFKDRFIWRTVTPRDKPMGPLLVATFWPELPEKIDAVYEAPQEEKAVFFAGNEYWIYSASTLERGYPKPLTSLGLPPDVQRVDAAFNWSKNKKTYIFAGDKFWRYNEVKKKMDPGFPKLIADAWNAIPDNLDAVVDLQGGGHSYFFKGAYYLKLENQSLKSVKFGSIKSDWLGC
Nature of the assay: MMP dose response assay for determining IC50, MMP-2. It is filed as biochemical. The settings on record: recombinant enzyme, fluorescent-quench substrate 100 nM. The protocol: MMP Dose Response Assay for Determining IC50
The following method was used for determining IC50 values of different inhibitor compounds against multiple MMP enzymes. Frozen stocks of recombinantly produced MMPs were prepared in assay buffer (50 mM HEPES pH 7.4, 10 mM CaCl2, 0.05% Brij-35). […] Enzyme concentrations in the assay were determined empirically and set such that proteolytic activity was maintained in a linear range over the time-course of the experiment. […] Each concentration for each test compound was tested in triplicate. MMP enzymes were equilibrated with compounds for 1 hour at room temperature, then a fluorescent-quench substrate (Acetyl-Cys(Eu)-Pro-Leu-Gly-Leu-Lys-(QSY7)-Ala-Arg-amide) was added to a final concentration of 100 nM. […] Data was analyzed by first calculating average background value from wells that contained only substrate, and this value was subtracted from the entire plate. The 100%, or maximum value, was determined by averaging control wells that contained enzyme, substrate and DMSO. For each well, the percent of control was calculated by dividing the well value by the average DMSO value obtained above.

Molecules are shown by their SMILES.

As usually defined, the IC50 is the concentration at which inhibition is half-maximal. For the compound `CS(=O)(=O)N(C[C@H](O)C(=O)NO)c1ccc(Oc2ccc(C(F)(F)F)cn2)cc1` [Example 53, N-Hydroxy (2S)-2-hydroxy-3-{N-{4-[(5-trifluoromethylpyridin-2-yl)oxy]phenyl},N-methanesulfonylamino}propionamide], the IC50 came to 2540 nM.
